In test [1] the target is T1, rat P2X7 (Rattus norvegicus (Rat), UniProt Q64663). Nature of the test: Radioligand binding, rat P2X7-1321N1 cell membranes, tritiated A-804598.
Test [2] deals with T1, rat P2X7. Nature of the test: Ca2+ flux (FLIPR) in 1321N1 cells expressing recombinant rat P2X7 channel. The class given is cell-based. Background: Calcium flux is commonly read through the fluorescence of an indicator in the cells.
Test [3] addresses T2, P2X7 (Homo sapiens (Human), UniProt Q99572). Nature of the test: Radioligand binding, human P2X7-1321N1 cell membranes, tritiated A-804598. The protocol:
P2X7 Antagonism in Recombinant hP2X7 Cells: (a) Ca^2+ Flux (b) Radioligand Binding
(B) Radioligand binding: human or rat P2X7-1321N1 cells were collected and frozen @−80° C. On the day of the experiment, cell membrane preparations were made according to standard published methods. The total assay volume was 100 μl:10 μl compound (10×)+(b) 40 μl tracer (2.5×)+50 μl membrane (2×). The tracer used for the assay was tritiated A-804598. The compound can be prepared as described in the literature. […] The assay was terminated by filtration (GF/B filters pre-soaked with 0.3% PEI) and washed with washing buffer (Tris-HCl 50 mM). The IC50 generated in the binding assay was corrected for tracer concentration and affinity of the tracer to derive at the affinity (Ki) of the test compounds.

By UniProt entry, the sequences of proteins in these tests, tags left out. Where a name states a change or a piece, a line headed by the entry shows the natural chain unless it says otherwise.
UniProt Q64663: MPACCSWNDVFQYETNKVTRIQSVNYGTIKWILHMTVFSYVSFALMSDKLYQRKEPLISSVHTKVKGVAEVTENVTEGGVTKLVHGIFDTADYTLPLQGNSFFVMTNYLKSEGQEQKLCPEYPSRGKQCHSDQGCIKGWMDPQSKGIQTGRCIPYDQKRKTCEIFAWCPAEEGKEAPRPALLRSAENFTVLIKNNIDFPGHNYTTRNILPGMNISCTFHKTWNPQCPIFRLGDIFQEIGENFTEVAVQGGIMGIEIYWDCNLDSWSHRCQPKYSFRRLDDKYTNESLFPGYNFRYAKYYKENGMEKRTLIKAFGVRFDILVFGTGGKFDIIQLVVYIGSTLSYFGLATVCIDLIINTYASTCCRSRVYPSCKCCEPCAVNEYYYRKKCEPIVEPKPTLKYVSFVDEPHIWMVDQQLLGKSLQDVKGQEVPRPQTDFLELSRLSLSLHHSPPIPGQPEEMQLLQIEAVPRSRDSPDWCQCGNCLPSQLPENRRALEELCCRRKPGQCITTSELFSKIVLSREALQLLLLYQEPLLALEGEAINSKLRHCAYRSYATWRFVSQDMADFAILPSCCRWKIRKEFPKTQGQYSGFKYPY
UniProt Q99572: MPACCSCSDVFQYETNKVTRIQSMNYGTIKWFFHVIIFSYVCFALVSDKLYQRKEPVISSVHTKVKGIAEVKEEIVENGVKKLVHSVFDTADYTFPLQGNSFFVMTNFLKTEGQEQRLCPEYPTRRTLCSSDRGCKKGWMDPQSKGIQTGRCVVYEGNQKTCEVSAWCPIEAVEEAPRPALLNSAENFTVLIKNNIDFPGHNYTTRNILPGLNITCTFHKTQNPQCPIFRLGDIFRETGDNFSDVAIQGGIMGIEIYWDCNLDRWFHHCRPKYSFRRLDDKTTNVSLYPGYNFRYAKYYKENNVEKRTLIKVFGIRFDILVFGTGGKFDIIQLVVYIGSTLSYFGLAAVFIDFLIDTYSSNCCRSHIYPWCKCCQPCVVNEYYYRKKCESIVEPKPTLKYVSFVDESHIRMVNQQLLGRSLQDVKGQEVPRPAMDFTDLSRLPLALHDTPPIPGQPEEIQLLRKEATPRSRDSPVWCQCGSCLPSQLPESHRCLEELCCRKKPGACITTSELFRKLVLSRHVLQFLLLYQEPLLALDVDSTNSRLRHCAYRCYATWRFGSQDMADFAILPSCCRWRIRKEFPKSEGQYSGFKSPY

The target in test [4] is T2, P2X7. Nature of the test: Ca2+ flux (FLIPR) in 1321N1 cells expressing recombinant human P2X7 channel. The class given is cell-based.
Test [5] deals with T2, P2X7. In words: cell-based.
Setting [6] is: rat P2X7-1321N1 membranes, tracer tritiated A-804598, 1 hour 4° C., read-out: P2X7 rat Ki.

Read-outs that look alike come from different tables or passages of the source.

A word on the Ki: it is the equilibrium dissociation constant of an inhibitor or competing ligand from its target. Usually IC50 stands for the point on the concentration scale where inhibition reaches its midpoint. Take `O=C(c1cccc(C(F)(F)F)c1Cl)N1[C@H]2CC[C@@H]1c1nnc(-c3ncc(F)cn3)n1C2` [Example 50, (6S,9R)-10-{[2-Chloro-3-(trifluoromethyl)phenyl]carbonyl}-3-(5-fluoropyrimidin-2-yl)-6,7,8,9-tetrahydro-5H-6,9-epimino[1,2,4]triazolo[4,3-a]azepine]: the Ki is 10 nM at rat P2X7 [1] (setting [6]) and 15.8 nM on P2X7 [3] (human P2X7-1321N1 membranes, tracer tritiated A-804598, 1 hour 4° C., read-out: P2X7 human Ki). The IC50 at rat P2X7 [2] (1321N1 cells, rat P2X7, 250 μM BzATP, read-out: FLIPR (rat) IC50) amounted to 6780 nM.

For the molecule `O=C(c1cccc(C(F)(F)F)c1Cl)N1[C@H]2CC[C@@H]1c1nnc(-c3ccc(F)cn3)n1C2` [Example 45, (6S,9R)-10-{[2-Chloro-3-(trifluoromethyl)phenyl]carbonyl}-3-(5-fluoropyridin-2-yl)-6,7,8,9-tetrahydro-5H-6,9-epimino[1,2,4]triazolo[4,3-a]azepine], on rat P2X7 [1] (setting [6]), the inhibitory constant (Ki) is 31.6 nM.

For the molecule `O=C(c1cccc(C(F)(F)F)c1Cl)N1[C@H]2CC[C@@H]1c1nnc(-c3ccc(Cl)s3)n1C2` [Example 55, (6S,9R)-3-(5-Chlorothiophen-2-yl)-10-{[2-chloro-3-(trifluoromethyl)phenyl]carbonyl}-6,7,8,9-tetrahydro-5H-6,9-epimino[1,2,4]triazolo[4,3-a]azepine], at rat P2X7 [1] (setting [6]), the Ki was 15.8 nM.

Take `COc1ccnc(-c2nnc3n2C[C@@H]2CCC[C@H]3N2C(=O)c2cccc(C(F)(F)F)c2Cl)c1` (single isomer, unassigned) [Example 26, (6S*,10R*)-11-{[2-Chloro-3-(trifluoromethyl)phenyl]carbonyl}-3-(4-methoxypyridin-2-yl)-5,6,7,8,9,10-hexahydro-6,10-epimino[1,2,4]triazolo[4,3-a]azocine]: the values for the Ki at rat P2X7 [1] and at P2X7 [3] were 4 nM and 30.4 nM, respectively. Besides, the 50% inhibitory concentration (IC50) was found to be 10 nM at P2X7 [4], 39.8 nM against P2X7 [5] and 1.4 nM on rat P2X7 [2].

Turning to `O=C(c1cccc(C(F)(F)F)c1Cl)N1[C@@H]2CCC[C@H]1c1nnc(-c3ccc(F)cn3)n1C2` (single isomer, unassigned) [Example 12, (6R*,10S*)-11-{[2-Chloro-3-(trifluoromethyl)phenyl]carbonyl}-3-(5-fluoropyridin-2-yl)-5,6,7,8,9,10-hexahydro-6,10-epimino[1,2,4]triazolo[4,3-a]azocine], the Ki at rat P2X7 [1] turned out to be 3.4 nM; at P2X7 [3], 12.6 nM. Also, the IC50 was 13.3 nM on P2X7 [4], 126 nM at P2X7 [5] and 36.6 nM on rat P2X7 [2].

With `O=C(c1cccc(C(F)(F)F)c1Cl)N1[C@H]2CCC[C@@H]1c1nnc(-c3cscn3)n1C2` (single isomer, unassigned) [Example 8, (6S*,10R*)-11-{[2-Chloro-3-(trifluoromethyl)phenyl]carbonyl}-3-(1,3-thiazol-4-yl)-5,6,7,8,9,10-hexahydro-6,10-epimino[1,2,4]triazolo[4,3-a]azocine], the inhibition constant Ki at rat P2X7 [1] is 1.3 nM; at P2X7 [3], 10 nM. The IC50 was 9.7 nM on P2X7 [4] and 2.5 nM at rat P2X7 [2].

`O=C(c1cccc(C(F)(F)F)c1Cl)N1[C@H]2CCC[C@@H]1c1nnc(-c3ccccn3)n1C2` (single isomer, unassigned) [Example 33, (6R*,10S*)-11-{[2-Chloro-3-(trifluoromethyl)phenyl]carbonyl}-3-pyridin-2-yl-5,6,7,8,9,10-hexahydro-6,10-epimino[1,2,4]triazolo[4,3-a]azocine]: the inhibition constant (Ki) at rat P2X7 [1] was 3.2 nM; at P2X7 [3], 10.5 nM. Moreover, the 50% inhibitory concentration (IC50) at P2X7 [4] worked out at 13.4 nM; at P2X7 [5] it was 43.7 nM; at rat P2X7 [2], 11.3 nM.

Take `Cc1cccc(-c2nnc3n2C[C@@H]2CCC[C@H]3N2C(=O)c2cccc(C(F)(F)F)c2Cl)n1` (single isomer, unassigned) [Example 23, (6S*,10R*)-11-{[2-Chloro-3-(trifluoromethyl)phenyl]carbonyl}-3-(6-methylpyridin-2-yl)-5,6,7,8,9,10-hexahydro-6,10-epimino[1,2,4]triazolo[4,3-a]azocine]: the values for the Ki on rat P2X7 [1] and at P2X7 [3] were 5 nM and 24 nM, respectively. Besides, the concentration for half-maximal inhibition (IC50) at P2X7 [4] turned out to be 40.4 nM; on rat P2X7 [2] it was 56 nM.

On to `O=C(c1cccc(C(F)(F)F)c1Cl)N1[C@H]2CC[C@@H]1c1nnc(-c3cccnc3)n1C2` [Example 48, (6S,9R)-10-{[2-Chloro-3-(trifluoromethyl)phenyl]carbonyl}-3-pyridin-3-yl-6,7,8,9-tetrahydro-5H-6,9-epimino[1,2,4]triazolo[4,3-a]azepine], for which the Ki at rat P2X7 [1] (setting [6]) was 15.8 nM.

Consider `O=C(c1ccc(F)c(Cl)c1Cl)N1[C@H]2CC[C@@H]1c1nnc(-c3cnccn3)n1C2` [Example 47, (6S,9R)-10-[(2,3-Dichloro-4-fluorophenyl)carbonyl]-3-pyrazin-2-yl-6,7,8,9-tetrahydro-5H-6,9-epimino[1,2,4]triazolo[4,3-a]azepine], for which the Ki on rat P2X7 [1] (setting [6]) came out at 6.3 nM.

Source of the values: US9102686B2, “5,6,7,8,9,10-hexahydro-6,10-epimino[1,2,4]triazolo[4,3-a]azocines as P2X7 modulators” (Janssen Pharmaceutica NV, priority 2013, dated 2015).
